Reference: article PMC5787524, “Discovery of a FLT3 inhibitor LDD1937 as an anti-leukemic agent for acute myeloid leukemia” (Oncotarget, 2017)

Tested on: MV-4-11 cells
Assay: Cell viability / growth inhibition (EZ-Cytox), MV-4-11
Format: cell-based, human
Conditions: 72 h; called IC50 in supplementary text
Method: MV-4-11 human acute myeloid leukemia cells were purchased from the American Type Culture Collection (ATCC, Rockville, MD, USA, CRL-9591), and the cells were cultured in IMDM medium (Sigma Co., St. Louis, MO, USA) supplemented with 10% fetal bovine serum, 1% penicillin/streptomycin and 4 mM L-glutamine (Life Technology, Grand Island, NY). Jurkat (human acute T lymphocytic leukemia, ATCC TIB-152) and K562 (human chronic myelogenous leukemia, ATCC CCL-243) cells were cultured in RPMI-1640 (Sigma Co.), and MCF7 (human breast adenocarcinoma, ATCC HTB-22) and PC-3 (human prostate adenocarcinoma, ATCC CRL-1435) cells were cultured in DMEM (Sigma Co.) medium supplemented with 10% fetal bovine serum and 1% penicillin/streptomycin. The cultured cells were incubated at 37°C with 5% CO2. Cell viability was assessed with a tetrazolium-based assay using the EZ-Cytox Cell Viability Assay kit (DaeilLab, Korea). Briefly, 2,000 ∼ 15,000 cells were plated in 96-well flat bottom plates in 100 µl of medium. The next day, the cells were treated with compounds along with dimethyl sulfoxide (DMSO, Fisher, Waltham, MA, USA) as a negative control. […] After incubation, the optical density (OD) was measured at a wavelength of 450 nm with a Victor multilabel reader (Perkin Elmer, Waltham, MA, USA). The IC50 was calculated with nonlinear regression using Prism version 5.01 (GraphPad, La Jolla, CA, USA).

COC(=O)c1ccc2c(c1)/C(=C1/Nc3ccccc3/C1=N\O)C(=O)N2 [Compound 1, Methyl (2Z,3E)-3-(hydroxyimino)-2′-oxo-[2,3′-biindolinylidene]-5′-carboxylate]
GI50: 41 nM
